Measured values published in ChEMBL document CHEMBL1132392, “Novel derivatives of 3-(dipropylamino)chroman. Interactions with 5-HT1A and D2A receptors” (Bioorg Med Chem Lett, 1999).

Protein sequences, listed by entry. Tags and fused reporters are not part of them.
UniProt P14416, whole entry: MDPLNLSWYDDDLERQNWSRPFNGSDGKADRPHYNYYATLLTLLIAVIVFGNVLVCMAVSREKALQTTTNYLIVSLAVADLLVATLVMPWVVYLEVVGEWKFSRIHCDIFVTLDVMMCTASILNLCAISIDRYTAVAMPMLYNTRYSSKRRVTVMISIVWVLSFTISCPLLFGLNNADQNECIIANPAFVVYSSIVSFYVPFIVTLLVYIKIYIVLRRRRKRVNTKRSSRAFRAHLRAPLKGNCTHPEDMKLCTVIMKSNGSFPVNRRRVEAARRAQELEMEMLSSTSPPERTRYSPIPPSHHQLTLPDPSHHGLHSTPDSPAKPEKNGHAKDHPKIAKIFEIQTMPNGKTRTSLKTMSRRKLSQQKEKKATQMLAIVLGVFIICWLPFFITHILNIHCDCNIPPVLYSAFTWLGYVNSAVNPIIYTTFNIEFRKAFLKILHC

Biological target: D(2) dopamine receptor (Homo sapiens, UniProt P14416)
Assay: In vitro ability to inhibit [3H]raclopride binding to cloned human D2A receptors expressed in mouse fibroblast (LtK-) cells
Assay type: cell-based

Ki [nM] | Compound
590 | CCCN(CCC)C1COc2c(cccc2-c2ccccc2)C1 (configuration not stated)
1090 | CCCN(CCC)C1COc2c(cccc2-c2ccc(OC)cc2)C1 (configuration not stated)
